Biological target: T1, interaction between HO-2 and HIV-1 MA (Homo sapiens, UniProt P30519)
T1 sequence (P30519 1-316): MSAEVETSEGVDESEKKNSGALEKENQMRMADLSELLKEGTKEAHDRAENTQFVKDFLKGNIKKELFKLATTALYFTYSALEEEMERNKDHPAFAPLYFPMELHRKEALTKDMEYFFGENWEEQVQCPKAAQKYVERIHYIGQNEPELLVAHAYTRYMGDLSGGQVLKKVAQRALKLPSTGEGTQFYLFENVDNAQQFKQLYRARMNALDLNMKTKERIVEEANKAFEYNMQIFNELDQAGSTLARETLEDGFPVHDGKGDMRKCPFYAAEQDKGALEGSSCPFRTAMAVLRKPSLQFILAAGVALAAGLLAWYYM
Assay: Co-immunoprecipitation of HO-2 with flag-tagged HIV-1 MA (Western blot)
Conditions: for interaction between HO-2 and HIV-1 MA: added to cell lysates, Myc-HO-2, FIGS. 1D, 8C

Compound | interaction between HO-2 and HIV-1 MA | interaction between HIV-1 MA and HO-2 (endogenous HO-2, increasing concentrations of SnPPIX, FIG. 4B)
CCCCCCCCCCCCCC(=O)O [myristic acid] | decrease the interaction between HO-2 and HIV-1 MA in a dose-dependent manner | –
CCCCCCCCCCCCCC(=O)O[C@@H]1[C@@H](C)[C@@]2(O)[C@@H](C=C(CO)C[C@]3(O)C(=O)C(C)=C[C@@H]23)[C@@H]2C(C)(C)[C@]12OC(C)=O [PMA, Phorbol 12-myristate 13-acetate] | decrease the interaction between HO-2 and HIV-1 MA in a dose-dependent manner | –
C=CC1=C(C)C2=Cc3c(C=C)c(C)c4[n]3[Sn]([Cl])([Cl])[n]3c(c(C)c(CCC(=O)O)c3=CC3=NC(=C4)C(C)=C3CCC(=O)O)=CC1=N2 [SnPPIX, tin protoporphyrin IX dichloride] | – | strongly inhibited the interaction between HIV-1 MA and HO-2 in a dose-dependent manner

Source: patent US10562939B2, “Method for significantly increasing lentiviral production” (priority 2016, dated 2020)
